The target in the assay is human serum albumin (HSA) (Homo sapiens, UniProt P02768). Nature of the assay: Biolayer interferometry (BLI) binding to biotinylated HSA. To be noted: Table 1, PBS pH 7.4. As to the method: In this study, we used the streptavidin conjugated biosensors (Pall Fort6Bio LLC, CA). We preincubated the biosensors with biotinylated HSA (Abeam Inc., Cambridge, Mass.) for 10 minutes. After removing the unbound biotinylated HSA, the biosensors were washed for 1 minute. After blocking the spare biosensor, we added EZ-Link™ Sulfo-NHS-Biotin (Thermo Fisher Scientific, Rockford, Ill.) to each well and then removed it and washed the wells.
Association of a given dilution of a compound with the albumin-derivatized biosensor was measured for 600 seconds and then in turn, dissociation of the compound from the albumin measured for another 600 seconds. Data was analyzed using the OCTET Data Analysis software 7.0.
For orientation: Biolayer interferometry detects binding as a change in optical thickness at a sensor tip.

The chains behind the UniProt entries cited, without tags or fusion partners. Residues count along the entry.
UniProt P02768, 25-609: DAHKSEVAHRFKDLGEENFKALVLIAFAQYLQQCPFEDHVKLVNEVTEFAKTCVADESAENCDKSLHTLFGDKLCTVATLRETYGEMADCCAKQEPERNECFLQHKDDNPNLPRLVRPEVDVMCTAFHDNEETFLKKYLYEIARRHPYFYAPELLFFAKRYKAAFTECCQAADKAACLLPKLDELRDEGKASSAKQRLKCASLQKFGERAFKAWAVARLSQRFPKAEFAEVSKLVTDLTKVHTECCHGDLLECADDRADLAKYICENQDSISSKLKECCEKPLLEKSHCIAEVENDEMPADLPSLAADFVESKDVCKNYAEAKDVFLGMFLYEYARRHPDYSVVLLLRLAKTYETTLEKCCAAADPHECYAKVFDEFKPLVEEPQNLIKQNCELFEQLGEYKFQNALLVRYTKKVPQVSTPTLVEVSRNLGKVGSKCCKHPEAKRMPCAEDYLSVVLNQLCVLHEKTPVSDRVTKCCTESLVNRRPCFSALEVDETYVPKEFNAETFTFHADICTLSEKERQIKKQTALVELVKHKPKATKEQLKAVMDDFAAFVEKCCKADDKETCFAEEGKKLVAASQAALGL

Each structure is given as a SMILES string. Structures can show the parent of a compound that is named as a salt.

Broadly, the Kd is a measure of binding affinity in units of concentration. Lower therefore signals a tighter complex.

`Cc1cc(-c2ccc(N=Nc3ccc4c(S(=O)(=O)O)cc(S(=O)(=O)O)c(N)c4c3O)c(C)c2)ccc1N=Nc1ccc2c(S(=O)(=O)O)cc(S(=O)(=O)O)c(N)c2c1O` [EB, tetrasodium salt of 6,6′-{(3,3′-dimethyl[1,1′-biphenyl]-4,4′-diyl)bis[diazene-2,1-diyl]}bis(4-amino-5-hydroxynaphthalene-1,3-disulfonate)] displayed a Kd of 3.7 µM.
